# scFv variants of Ab-14 (light chain) against a SARS-CoV-2 spike peptide

Target peptide (SARS-CoV-2 spike, HR2 region): PDVDLGDISGINAS

Parent: Ab-14, a human scFv built as VH, the linker GGGGSGGGGSGGGGS, VL. Only the CDRs of the light chain vary.
VH: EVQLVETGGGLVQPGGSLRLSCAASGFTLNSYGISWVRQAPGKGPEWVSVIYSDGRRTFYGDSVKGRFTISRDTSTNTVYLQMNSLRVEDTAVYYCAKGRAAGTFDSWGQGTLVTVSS
VL: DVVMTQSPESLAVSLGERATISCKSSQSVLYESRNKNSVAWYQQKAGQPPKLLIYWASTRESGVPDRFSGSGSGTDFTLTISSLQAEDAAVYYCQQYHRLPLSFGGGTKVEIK

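The parent was found by panning a naive human phage display library on the peptide. These sequences belong to a second round, designed from the earlier measurements on random variants of the parent. Several design methods are mixed in this list. Affinity was read by AlphaSeq, a pooled yeast mating assay with surface-displayed partners. Pairs that bind mate more often; barcode pairs of the diploids are counted by sequencing. Scores were corrected for input abundance and mapped to Kd with protein pairs of known affinity run in the same pool. Mating was done six times.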

The parent's light chain CDRs are KSSQSVLYESRNKNSVA, WASTRES, QQYHRLPLS; each variant's own CDRs replace them letter for letter.
Values are log10 of the apparent Kd in nM; lower means stronger binding.
A mean of the replicates is given; it leaves out those without a signal.
"n.d." means that the variant was in the library but no mating with the target was seen in that replicate; the authors take this as a sign of poor binding, and no number exists.
The list is sorted by this average, lowest first, undetected variants last.
Of ten entries with the parent sequence, four were seen in most replicates (averages 0.34 to 2.37), three in one and three in none, so single entries are noisy.
The authors averaged sequences with at least three values out of six and counted those with two or fewer as poor binders.
A sequence measured in both rounds can read differently, since the two assays cover different ranges.
Nonspecific signal, from three strains lacking the peptide, appeared in 4% of pairings of all light chain designs, centred on 2.64 (5% of these signals below 1.59); values are not corrected for it. Also given: how often the same scFv was detected with the empty control strains, with their mean in brackets.

| CDR-L1 | CDR-L2 | CDR-L3 | log10 Kd, replicates | mean log10 Kd (nM) | empty controls |
|---|---|---|---|---|---|
| KLQQSVEYESRNKNNVA | EGSQREV | QQYHRLPLS | -0.65 / -0.74 / -0.68 / -0.89 / -0.77 / -0.99 | -0.79 | 2 of 18 (2.17) |
| KLYQSQLYLSRNMNAVA | NASQRMS | QQYHRLPLS | -0.24 / -0.37 / -0.41 / -0.50 / -0.42 / -0.26 | -0.37 | 4 of 18 (2.97) |
| KMQQSQLYESRNKNSVA | NASTRLS | QQYHRLPLS | -0.21 / -0.19 / -0.23 / -0.40 / -0.46 / -0.07 | -0.26 | 0 of 18 |
| KFSQWHLYESRTKNSVA | NASTRES | QQYHRLPLS | -0.07 / -0.29 / -0.83 / -0.43 / 0.66 / -0.40 | -0.23 | 0 of 18 |
| ALGDVTRMESNKVNSIA | DMSNRED | QQYHRLPLS | -0.12 / 0.09 / -0.34 / -0.38 / -0.26 / 0.17 | -0.14 | 0 of 18 |
| KVSQSQLYESRNKNSVA | NASTRLS | QQYHRLPLS | -0.08 / 0.01 / -0.07 / -0.22 / -0.20 / 0.07 | -0.08 | 1 of 18 (2.66) |
| KLQQSHLYESRNKNSVA | NASTRLS | QQYHRLPLS | 0.23 / -0.16 / -0.01 / -0.14 / -0.21 / -0.05 | -0.06 | 2 of 18 (3.09) |
| KLSQSVLYESRNKNSVA | NASQRLS | QDYHRLPLS | 0.17 / -0.01 / -0.14 / 0.01 / -0.12 / 0.11 | 0.00 | 3 of 18 (2.70) |
| HSSPSWLYDSRNKNHVA | NASTRES | QQYHRLPLS | 0.36 / 0.13 / -0.11 / -0.20 / 0.00 / 0.08 | 0.04 | 0 of 18 |
| SMGWAHENGDNKMNSIA | DETHLAY | QQYSRLPIT | 0.40 / -0.02 / -0.09 / -0.06 / -0.11 / 0.17 | 0.05 | 1 of 18 (2.72) |
| KLHQSVGYEERNKNSVA | GASQRES | QQYHRLPLS | 0.32 / -0.09 / 0.04 / 0.07 / 0.07 / 0.12 | 0.09 | 1 of 18 (2.08) |
| KYYPSYEYESRNKNSVA | QASTRES | QQYHRLPLS | 0.25 / 0.18 / 0.09 / -0.02 / 0.30 / 0.28 | 0.18 | 1 of 18 (2.69) |
| MISQLYNMGTFAINSVA | QASIRNE | QQYDRLPLT | 0.26 / -0.05 / 0.71 / 0.59 / 0.56 / 0.66 | 0.45 | 0 of 18 |
| KWSFSVLGESRNKNSVA | DASTRES | QQYHRLPLS | 0.44 / 0.54 / 0.28 / 0.36 / 0.51 / 0.80 | 0.49 | 1 of 18 (3.19) |
| KLSQSVLYESRNKNSVA | HASQRLS | QQYHRLPLS | 0.52 / 0.31 / 0.57 / 0.40 / 0.61 / 0.68 | 0.52 | 0 of 18 |
| KLDEKNRWNGMANYNVA | ASNTRVD | QQYHRLPLI | 0.57 / 0.71 / 0.41 / 0.77 / 0.38 / 0.61 | 0.57 | 0 of 18 |
| MVNGIMDHLSKQTNNVA | ETETRNE | QQYDRLPLS | 0.83 / 0.36 / 0.49 / 0.41 / 0.43 / 0.98 | 0.58 | 0 of 18 |
| KLPNSSLYESRNKNQVA | SASQREM | QQYHRLPLS | 0.89 / 0.62 / 0.74 / 0.52 / 0.59 / 0.57 | 0.65 | 1 of 18 (3.00) |
| KLMQSSGYESRNFNSVA | QASTRMS | QQYHRLPLS | 0.92 / 0.77 / 0.72 / 0.78 / 0.52 / 0.58 | 0.72 | 3 of 18 (3.63) |
| VLPDHELMLESQIHSIA | NEDKRME | QQYSRLPLM | 0.63 / 0.30 / 0.69 / 1.65 / 0.68 / 0.72 | 0.78 | 0 of 18 |
| KLWMSVLGESRNSNAVA | SASTREQ | QQYHRLPLS | 1.31 / 0.71 / 0.54 / 0.97 / 0.67 / 0.84 | 0.84 | 0 of 18 |
| IVSQLMLWGHLAKNSIA | EAETRLN | QQYDRLPLF | 1.57 / 0.93 / 0.11 / 0.46 / 1.43 / 0.73 | 0.87 | 2 of 18 (2.82) |
| TISMSMNWLTRNKNSIA | EESTRED | QQYDRLPLM | 1.00 / 1.16 / 0.85 / 0.91 / 1.28 / 0.37 | 0.93 | 0 of 18 |
| KLSMLHWYWSRNKNSVA | EASTREQ | QQYHRLPLS | 1.24 / 1.59 / 1.07 / 1.74 / 0.69 / 0.98 | 1.22 | 0 of 18 |
| KSSQSVLYESVWKNSVA | HASTREF | QQYHRLPLS | 1.26 / 1.70 / 1.80 / 0.81 / 1.13 / 1.06 | 1.29 | 0 of 18 |
| HDSQSVLYESENKNSLA | WASTRRS | QQYHRLPLS | n.d. / n.d. / n.d. / n.d. / n.d. / 1.35 | 1.35 | 0 of 18 |
| YLSINEVSDSYNVSRVA | EAETSVA | QQYHHLPLI | 1.71 / 1.64 / 1.30 / 1.31 / 1.39 / 1.51 | 1.48 | 1 of 18 (2.73) |
| KSSQSVLYESNNKNSVA | WASTREE | QQYHRLPLS | 2.13 / 1.24 / 2.19 / 2.00 / 2.58 / 0.85 | 1.83 | 0 of 18 |
| MISQVMNTLTRHGNNVA | DLEERED | QQYFRLPLS | n.d. / n.d. / n.d. / n.d. / n.d. / n.d. | n.d. | 0 of 18 |
| KSSQSVLTESRNKNSVA | WASTRES | QQYHRGPLS | n.d. / n.d. / n.d. / n.d. / n.d. / n.d. | n.d. | 0 of 18 |
| KSSISYLYESENKYSVA | EASQRES | QQYHRLPLS | n.d. / n.d. / n.d. / n.d. / n.d. / n.d. | n.d. | 0 of 18 |
| KSSQSVFYESRNKNSVA | HASTRES | QHKHRLPLS | n.d. / n.d. / n.d. / n.d. / n.d. / n.d. | n.d. | 0 of 18 |

From the list, the first 2 with no signal in any replicate:

{"CDR-L1": "MISQVMNTLTRHGNNVA", "CDR-L2": "DLEERED", "CDR-L3": "QQYFRLPLS", "log10 Kd, replicates": "n.d. / n.d. / n.d. / n.d. / n.d. / n.d.", "mean log10 Kd (nM)": "n.d.", "empty controls": "0 of 18"}
{"CDR-L1": "KSSQSVLTESRNKNSVA", "CDR-L2": "WASTRES", "CDR-L3": "QQYHRGPLS", "log10 Kd, replicates": "n.d. / n.d. / n.d. / n.d. / n.d. / n.d.", "mean log10 Kd (nM)": "n.d.", "empty controls": "0 of 18"}

From the AlphaSeq antibody data of Li et al. 2023 (doi:10.1038/s41467-023-39022-2), copy in the FLAb collection.